Entries after “also recorded” stand apart in the source; their conditions may differ.
What was measured:
[1] = tested on: B7-H3 negative cells CHO-K1-FRα; assay: Bystander effect of ADC14, transfer of culture supernatant (CCK8); format: cell-based; conditions: 3 days treatment, supernatant on CHO-K1-FRα for 4 days; FIG. 6
[2] = tested on: human liver cancer Hep 3B cell line; assay: Subcutaneous xenograft model of human liver cancer Hep 3B; conditions: for Mean tumor volume ± SEM (mm^3) / TGI (%): single administration, Day 25
[3] = tested on: B7-H3 negative cells CHO-K1; assay: In-vitro cytotoxicity of ADC14 (CCK8); format: cell-based
[4] = tested on: JEG-3 cells; assay: Balb/c nude mice JEG-3 subcutaneous model; format: in vivo, mouse; conditions: single administration; for TGI: 8th day after administrating
Protocol: The 6-7 week old female BALB/c nude mice were selected, and the 1×10^6 JEG-3 cells suspending in 100 μL EMEM medium containing 50% Matrigel were grafted subcutaneously on the right side of the mice.
After Administrating, the tumor volumes were measured twice a week.

[5] = tested on: FRα negative A549 cells; assay: Bystander effect of ADC16, conditioned medium cytotoxicity assay (CCK-8); format: cell-based
Protocol: 3) Repeat steps 1) and 2) on the second and third day.
4) On the fifth day, the A549 cell density was adjusted to 40,000 cells/mL with DMEM+2% FBS medium, inoculated 100 μL per well in a 96-well plate subsequently, and placed in a Series II Water Jacketed CO2 Incubator under the condition of standing for 2 hours at 37° C. and 5% CO2. And the culture supernatant of steps 1), 2), and 3), were added with 100 μL per well. 100 μL of 3000 nM Exatecan was added in column 1 as a lethal control, 100 μL of DMEM+2% FBS medium was added in column 12 as a blank control.
The culture condition was 37° C., 5% CO2.
6) The culture medium was discarded, and DMEM medium containing 10% CCK-8 was added. Placed in Series II Water Jacketed CO2 Incubator, and developed color at 37° C. in the dark for 1 hour. Then it was read on a microplate reader SpectraMax M3, and the wavelength of light absorbed was 450 nm.
7) Organized the data. The formula for calculating cell viability is as follows: […]

[6] = tested on: Ovarian Cancer OV3756 xenograft; assay: HuPrime ovarian cancer OV3756 subcutaneous xenograft model; format: in vivo, mouse
Source text: 1. Pharmacodynamic evaluation of the test drug in HuPrime® Ovarian Cancer OV3756 Subcutaneous Xenograft Female BALB/c Nude Mouse Model.
The tumor tissues were harvested from HuPrime® Ovarian Cancer Xenograft Model OV3756 bearing mice, cuted into tumor masses with a diameter of 2-3 mm, and grafted subcutaneously in the right anterior scapula of 6-7 week old female BALB/c nude mice.
The day of grouping was set as day 0, and the administration began on day 0.

B1: ADC14: anti-B7H3 antibody A conjugated with CB07-Exatecan; DAR 8.0 (conjugate)
heavy: EVQLVQSGAEVKKSGESLKISCKASGYTFTDYDINWVRQMPGKGLEWIGWIFPGDDTTKYNEKFKGQVTLSADKSTNTAYMQWSSLKASDTAMYYCARSPSFDYWGQGTLVTVSSASTKGPSVFPLAPSSKSTSGGTAALGCLVKDYFPEPVTVSWNSGALTSGVHTFPAVLQSSGLYSLSSVVTVPSSSLGTQTYICNVNHKPSNTKVDKKV[letters of human IgG1 Fc omitted]
light: QIVLTQSPGTLSLSPGERATLSCSASSTIGFMYWYQQKPGQAPRRWIYDTSKLASGVPDRFSGSGSGTDYTLTISRLEPEDFAVYYCHQRSSYPTFGQGTKVEIKRTVAAPSVFIFPPSDEQLKSGTASVVCLLNNFYPREAKVQWKVDNALQSGNSQESVTEQDSKDSTYSLSSTLTLSKADYEKHKVYACEVTHQGLSSPVTKSFNRGEC
[1]
  killing effect of culture supernatant of ADC-treated B7-H3 negative cells CHO-K1-FRα on CHO-K1-FRα: no significant killing effect
  killing effect of culture supernatant of ADC-treated B7-H3 positive cells CHO-K1-B7-H3 on CHO-K1-FRα: significant killing effect
[2]; 2.5 mg/kg i.v.
  Mean tumor volume ± SEM (mm^3): 139 ± 58 mm^3
  TGI (%): 93.86%
[2]; 5 mg/kg i.v.
  Mean tumor volume ± SEM (mm^3): 30 ± 10 mm^3
  TGI (%): 98.66%
[2]; 2.5 and 5 mg/kg, FIG. 14
  growth inhibition effect on Hep 3B tumor (in words): very strong growth inhibition effect on Hep 3B tumor in a dose-dependent manner
[3]
  killing effect on B7-H3 negative cells (in words): no significant killing effect

B2: ADC15 (conjugate)
heavy: EVQLVQSGAEVKKSGESLKISCKASGYTFTDYDINWVRQMPGKGLEWIGWIFPGDDTTKYNEKFKGQVTLSADKSTNTAYMQWSSLKASDTAMYYCARSPSFDYWGQGTLVTVSSASTKGPSVFPLAPSSKSTSGGTAALGCLVKDYFPEPVTVSWNSGALTSGVHTFPAVLQSSGLYSLSSVVTVPSSSLGTQTYICNVNHKPSNTKVDKKV[letters of human IgG1 Fc omitted]
light: QIVLTQSPGTLSLSPGERATLSCSASSTIGFMYWYQQKPGQAPRRWIYDTSKLASGVPDRFSGSGSGTDYTLTISRLEPEDFAVYYCHQRSSYPTFGQGTKVEIKRTVAAPSVFIFPPSDEQLKSGTASVVCLLNNFYPREAKVQWKVDNALQSGNSQESVTEQDSKDSTYSLSSTLTLSKADYEKHKVYACEVTHQGLSSPVTKSFNRGEC
[2]; 5 mg/kg i.v.
  Mean tumor volume ± SEM (mm^3): 858 ± 112 mm^3
  TGI (%): 62.02%

B3: ADC16: anti-FRα antibody A conjugated with CB07-Exatecan; DAR 8 (conjugate)
heavy: QVQLVQSGVEVKKPGASVKVSCKASGYSFTGYFMNWVRQAPGQGLEWIGRIHPYDGDTFYNQNFKDKATLTVDKSTTTAYMELKSLQFDDTAVYYCTRYDGSRAMDYWGQGTTVTVSSASTKGPSVFPLAPSSKSTSGGTAALGCLVKDYFPEPVTVSWNSGALTSGVHTFPAVLQSSGLYSLSSVVTVPSSSLGTQTYICNVNHKPSNTKVDKKV[letters of human IgG1 Fc omitted]
light: EIVLTQSPATLSLSPGERATLSCKASQSVSFAGTSLMHWYQQKPGQAPRLLIYRASNLEAGVPARFSGSGSKTDFTLTISSLEPEDFAVYYCQQSREYPYTFGGGTKVEIKRTVAAPSVFIFPPSDEQLKSGTASVVCLLNNFYPREAKVQWKVDNALQSGNSQESVTEQDSKDSTYSLSSTLTLSKADYEKHKVYACEVTHQGLSSPVTKSFNRGEC
[4]; 2.5 mg/kg i.v.
  TGI: 98.98%
[4]; 5 mg/kg i.v.
  TGI: 100.00%
[4]; 2.5 and 5 mg/kg i.v., 28 days, FIG. 16
  tumor inhibitory effect (in words): significant tumor inhibitory effect in a dose-dependent manner; also recorded: complete the tumor regression and maintained it to the end of the experiment
[5]; FRα negative A549 cells
  direct killing effect on A549 cells: basically has no killing effect
[5]; JEG-3 treated 2, 3, 4 days, supernatant on A549 for 3 days, FIG. 7
  effect of conditioned medium of ADC-treated JEG-3 cells on viability of A549 cells: viability of A549 cells decreased significantly; also recorded: significant killing effect on A549 cells
[6]; 2.5 mg/kg i.v., single administration, Day 28
  TGI (%): 86.81%
[6]; 2.5 mg/kg i.v., single administration, mean ± standard error
  Mean tumor volume (Day 28): 277.59 ± 68.82 mm^3
[6]; ADC17 5 mg/kg, ADC16 2.5 mg/kg, FIG. 15
  inhibition of tumor growth (in words): significantly inhibit tumor growth

Reference: patent publication US20240269315A1, “DRUG CONJUGATE AND USE THEREOF” (priority 2021, published 2024)
